Data published in patent US11970521B2, “Neuroprotective beta amyloid core peptides and peptidomimetic derivatives” (priority 2016, dated 2024).

What was measured:
hippocampal slices = conditions: FIG. 11, from Lawrence et al. 2014; cited from earlier work
[1] = tested on: mock-transfected NG108-15 cells; assay: Cell death (apoptosis) TUNEL assay, NG108-15 cells without nAChRs; type: cell-based; conditions: nM-μM co-treatment over four days with 1 μM Aβ1-42; FIG. 14B; trend of greater reduction at μM
Experimental: (§1) Neuroblestoma Clonal Cell Culture and Transfection. Rodent hybrid neuroblastoma NG108-15 cells were used as a model nerve cell system allowing reconstitution with defined target receptors for Aβ. The cells were cultured in Dulbecco's modified Eagle's medium (DMEM) containing 15% fetal bovine serum (FBS) and differentiated in the presence of reduced serum (1% FBS) and 1 mM dibutyryl cyclic AMP for 72 h, Expression vectors (pcDNA3.1) containing mouse sequences for α4 and β2 nAChR subunits (1:4 ratio respectively) were transiently transfected into the cells using FuGENE HD (ThernioFisher, catalog #PRE2311) for 48 h. Mock-transfected NG108-15 cells, exposed only to FuGENE HO and not plasmid DNA, were used as controls.

[2] = tested on: primary hippocampal neurons; assay: Cell stress (ROS) assay in primary hippocampal neuron cultures; type: cell-based, mouse; conditions: 1 μM with 1 μM Aβ1-42, 5 or 10 days; p<0.0001
[3] = tested on: nicotinic receptors (nAChRs); conditions: low concentrations (pM-nM); Lawrence et al. 2014; cited from earlier work
model neuronal cultures = assay: Excitotoxicity in model neuronal cultures; type: cell-based; conditions: only high levels (μM)
[4] = tested on: 5XFAD (familial Alzheimer's disease) APP mice; assay: Contextual fear memory in 5XFAD APP mice; type: in vivo, mouse; conditions: FIG. 12
[5] = tested on: mock-transfected NG108-15 cells; assay: Cell stress (ROS) assay, mock-transfected NG108-15 cells (absent nAChRs) treated with μM Aβ1-42; type: cell-based, rodent; conditions: co-treatment with nM-μM concentrations and 1 μM Aβ1-42; FIG. 6A; p<0.0001
From the text: (§2) In Vitro Neuronal Models. The studies were, performed on the NG108-15 rodent hybrid neuroblastoma cell line and primary hippocampal neuron cultures. The cell line can be differentiated, yielding axonal neurites with presynaptic-like varicosities that have the ability to release acetylcholine via exocytosis in response to stimulation. […] The primary hippocampal neuron cultures provide a physiologically relevant model. Non-limiting examples of results are shown in FIGS. 4, 5A-5B, 8A-6B, 7A-7B, 8, 9A-9B, 10A-10B, 13A-13,C and 14A-14B.
as §1, with “Mock-transfected NG108-15 cells, exposed only to FuGENE HO and not plasmid DNA, were used as controls.” left out
Cell Stress Assays. […] Cell count and fluorescence intensity of reactive oxygen species (ROS)-positive cells were assessed as a means to measure cellular oxidative stress using an Image-IT® LIVE Green Reactive Oxygen Species Detection Kit. […]

[6] = tested on: primary hippocampal neurons; assay: Cell survival (cell counts), primary hippocampal neurons; type: cell-based, mouse; conditions: 1 μM with 1 μM Aβ1-42; FIG. 10B; p<0.0001
Experimental: (§3) Cell Survival. Cell survival was determined by counting cells everyday for 7 or 10 days of treatment. For each condition, all cells in 5 random fields of view were counted and averaged. Percent cell death was calculated based on daily cell counts as a proportion of starting cell count numbers (i.e. day 0).

[7] = tested on: NG108-15 cells expressing α4β2-nAChRs; assay: Cell survival (daily cell counts), NG108-15 cells with α4β2-nAChRs; type: cell-based, rodent
Experimental: Neuroblestoma Clonal Cell Culture and Transfection. Rodent hybrid neuroblastoma NG108-15 cells were used as a model nerve cell system allowing reconstitution with defined target receptors for Aβ. […] Mock-transfected NG108-15 cells, exposed only to FuGENE HO and not plasmid DNA, were used as controls.
as §3

[8] = tested on: endogenously produced Aβ (from transfected APP); assay: Cell stress (ROS) assay, endogenously produced Aβ from transfected APP; type: cell-based; conditions: FIG. 8
Experimental: (§4) Cell Stress Assays. Cells were plated, differentiated and treated for 3 days poor to assay. Cell count and fluorescence intensity of reactive oxygen species (ROS)-positive cells were assessed as a means to measure cellular oxidative stress using an Image-IT® LIVE Green Reactive Oxygen Species Detection Kit. In brief, the cells were treated for three days for NG108-15 cultures end five or ten days for primary hippocampal neuronal cultures. The media was changed every day, thus replenishing with fresh Aβ every 24 h, unless otherwise noted. Thereafter, the cells were incubated with carboxy-H2DCFDA (component A) at 37° C. for 30 min. During the last 5 min of incubation, 2 μg/ml of HOECHST stain (component B) was added to assess, in parallel, the integrity of the cell nuclei. The cells were washed twice with HBS and visualized using an Olympus IX81 epifluorescence microscope at excitation/emission of 495) 529 nm (ROS) and 350/461 nm (HOECHST), respectively. Exemplary results are shown in FIGS. 4, 5A, 6A, 7A-7B, 8, and 9A-9B.

[9] = tested on: NG108-15 cells expressing α4β2-nAChRs; assay: Cell stress (ROS) assay, α4β2-nAChR-transfected differentiated NG108-15 cells treated with Aβ1-42; type: cell-based, rodent; conditions: FIG. 4, p<0.0001
From the text: as §2, §1
as §4, with “The cells were washed twice with HBS and visualized using an Olympus IX81 epifluorescence microscope at excitation/emission of 495) 529 nm (ROS) and 350/461 nm (HOECHST), respectively. Exemplary results are shown in FIGS. 4, 5A, 6A, 7A-7B, 8, and 9A-9B.” left out

[10] = tested on: nicotinic receptors (nAChRs); assay: Ca2+ imaging / neuromodulator activity at nicotinic receptors (receptor subtype not specified in the statement); type: cell-based; conditions: compared with full-length β-amyloid
Experimental: Ca^2+ Imaging Fluo-4, a Ca^2+ indicator dye, was loaded into cells on coverslips and visualization of [Ca^2+] was done via a Nikon PCM 2000 Cameleon AOTF confocal microscope. Each time-series was normalized to baseline fluorescence intensity at time zero (F/F0). After recording a baseline image series, each treatment was perfused over cells for 2.5 minutes or 15 minutes and quantification of relative fluorescence changes was analyzed through imageJ.

## DAEFRHDSGYEVHHQ [N-Aβ fragment]
Hippocampal slices
  Aβ-linked deficits in synaptic plasticity (LTP): protects against Aβ-linked deficits in synaptic plasticity
[1]
  Aβ1-42-induced DNA-fragmentation in absence of nAChRs: reduced DNA-fragmentation compared to Aβ1-42 alone
[2]
  Aβ1-42-induced ROS in primary neurons, co-treatment: reduced the levels of ROS down to untreated (baseline) levels
[3]
  Effectiveness as neuromodulator versus full-length Aβ: nearly twice as effective as full-length Aβ
Model neuronal cultures
  Protection against excitotoxicity: protected against excitotoxicity
[4]
  Aβ-linked deficits in contextual fear memory: protects against Aβ-linked deficits in contextual fear memory
[5]
  Aβ1-42-induced oxidative stress (ROS) in absence of nAChRs: reduced this oxidative stress compared to Aβ1-42 alone
[6]
  Aβ1-42-induced cell death over 10-day treatments, co-treatment: protected primary hippocampal neurons against β1-42-induced cell death
[7]; 100 nM co-treatment with 100 nM Aβ1-42, FIG. 10A, p<0.0001
  Aβ1-42-induced cell death at 7 days, co-treatment: able to fully protect against Aβ1-42-induced cell death
[7]; FIG. 10A-10B
  Toxicity of peptide alone (cell counts): non-toxic
[8]
  Oxidative stress (ROS) induced by endogenously produced Aβ: protects against cellular toxicity
[9]; 100 nM introduced one day prior to 100 nM Aβ1-42
  Aβ1-42-induced ROS, priming (pre-treatment): significantly reduced Aβ1-42-induced ROS
[9]; co-treatment at similar or higher concentrations than daily 100 nM Aβ1-42
  Aβ1-42-induced oxidative stress (ROS), co-treatment: able to prevent Aβ1-42-induced oxidative stress
[9]; introduced 1 day after Aβ1-42 (100 nM each)
  Aβ1-42-induced ROS, rescue treatment: attenuated ROS to a significant extent
[10]
  Agonist-like action on nicotinic receptors in Ca2+ imaging studies: highly potent and more effective than full-length β-amyloid
